The values below come from publication PMC9890698 (BMC Biology, 2023).

Sequences of proteins named here, by UniProt entry; tags and fusion partners are left off. A change or cut given only in a name is not applied to a line headed by its entry.
UniProt P47900: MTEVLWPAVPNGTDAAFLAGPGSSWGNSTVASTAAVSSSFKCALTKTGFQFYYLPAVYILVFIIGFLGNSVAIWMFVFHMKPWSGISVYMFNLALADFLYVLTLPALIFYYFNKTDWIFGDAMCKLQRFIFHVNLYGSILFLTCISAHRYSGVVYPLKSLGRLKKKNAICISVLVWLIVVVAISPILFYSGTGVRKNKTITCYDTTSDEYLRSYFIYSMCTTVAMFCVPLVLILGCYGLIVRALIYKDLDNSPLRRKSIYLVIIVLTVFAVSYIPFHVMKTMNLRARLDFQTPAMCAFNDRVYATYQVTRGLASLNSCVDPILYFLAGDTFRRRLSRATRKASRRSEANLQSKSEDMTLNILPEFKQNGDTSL

The target in the assay is T1, Human P2Y1-R (Homo sapiens, UniProt P47900).
T1 construct: expressed in transfected cells; host or cells: HEK293T/17
Description: β-arrestin 2 recruitment BRET1 assay (β-arrestin 2-RLuc / P2Y1-R-Venus) in HEK293T cells. Particulars: for 2MeSADP-modulated BRET: Fig. S6c, individual replicates. The assay is classed as cell-based. The text has this:
We assessed β-arrestin 2 recruitment to the receptor using BRET^1 assay. The assay measures the interaction between β-arrestin 2 fused to the Renilla reniformis luciferase (RLuc) energy donor and the receptor fused to fluorescent Venus energy acceptor (Fig. 3a). The recruitment of cytosolic β-arrestin 2 to the receptor at the plasma membrane in the presence of an agonist will promote a significant increase of the BRET signal compared to the basal state, reflecting the close proximity between the β-arrestin 2 energy donor and the receptor energy acceptor [22].
Human P2Y1-R (NCBI Reference Sequence: NM_002563.2) and P2Y12-R (NCBI Reference Sequence: NM_022788.3) were fused to double Myc epitope and rat AT1-R (NCBI Reference Sequence: NM_030985.4) to HA tag in N-terminus extracellular region. Alternatively, receptors were also fused to Venus tag in C-terminus intracellular region. Plasmids encoding Gαq-RLuc8, GFP2-Gγ2 and untagged Gβ1 were previously described. ADP was purchased from Sigma-Aldrich/Merck (Darmstadt, Germany). MRS2179, MRS2279, MRS2500, and 2MeSADP were purchased from Tocris Bioscience (Bristol, UK) and luciferase substrates (coelenterazine 400a and h) from Interchim (Los Angeles, CA, USA). The Gq inhibitor (FR900359) was kindly supplied by Evi Kostenis (University of Bonn. Germany).
G protein activation and β-arrestin 2 recruitment were performed as previously described. […] BRET signal between RLuc8 and GFP2 was measured after addition of the luciferase substrate coelenterazine 400a (5 μM). […] BRET signal was recorded after incubation with coelenterazine h (5 μM) for 8 min. For kinetics studies, BRET signal between RLuc and Venus was recorded at 20-s intervals at basal state for the 2 first minutes and then for 5 min after ligand injection. For saturation curves (BRET^1), the expression level of Venus- or RLuc-tagged protein was determined by direct measurement of total fluorescence and luminescence respectively. Total fluorescence was first measured with an excitation filter at 485 nm and an emission filter at 520 nm. Then, the same sample was incubated for 8 minutes with 5 μM coelenterazine h and the total luminescence was measured. BRET^2 and BRET^1 readings were collected using a modified Infinite F500 (Tecan Group Ltd). The BRET^2 signal was calculated by the ratio of emission of GFP2 (510–540 nm) to RLuc8 (370–450 nm) and the BRET^1 signal by the ratio of emission of Venus (520–570 nm) to RLuc (370–480 nm). Sometimes, results are expressed as the Net BRET computed by deducting the BRET background signal (obtained in the presence of the energy donor alone) from the BRET signal (acquired from cells expressing both the energy donor and acceptor).
In general terms: Recruitment of arrestin is a read-out of receptor activation apart from second messengers.

Where “and” joins values, the source holds several entries; their conditions need not be identical. Identical values can stand only once.

For “2-methylthioadenosine diphosphate [2MeSADP]”, the “Effect on β-arrestin 2 recruitment at decreased (low) P2Y1-R expression” value (10 μM, 15 min, decreasing amounts of P2Y1-R-Venus vector, result in words) is “only promoted β-arrestin 2 recruitment in cells expressing low levels of P2Y1-R”. In addition, the “2MeSADP-modulated BRET” value by setting is: (0.1µg P2Y1-R plasmid) 0.01234 and 0.02163 and 0.01634 and 0.02084 and 0.01126; (1µg P2Y1-R plasmid) -0.003984 and 0.007451 and 0.009769 and 0.006038 and 0.007665; (4µg P2Y1-R plasmid) -0.008732 and 0.004234 and 0.00381 and -0.008059 and 0.009556.
